In article PMC9673142, “1,3-Diarylpyrazolyl-acylsulfonamides Target HadAB/BC Complex in Mycobacterium tuberculosis” (ACS Infectious Diseases, 2022):
Values after ≈ are worked out from the molar mass of the structure shown.

System: Mtb H37Rv
Experiment: microbe, parasite or virus in culture
Assay type: cell-based
Conditions: Mycobacterium tuberculosis, read-out: Mtb MIC

## CS(=O)(=O)NC(=O)NCc1cn(-c2ccc(C(F)(F)F)nc2)nc1-c1ccncc1 [Compound 11]
  MIC: 1.2 µM (≈ 0.528 µg/mL)
